# Values quoted from earlier work in patent publication US11746374B2, “Methods and platform for screening and selecting metabolites and their receptors” (BOARD OF REGENTS, THE UNIVERSITY OF TEXAS SYSTEM, priority 2017, dated 2023).
# Protein sequences, listed by entry. Tags and fused reporters are not part of them.
# UniProt P34972, whole entry: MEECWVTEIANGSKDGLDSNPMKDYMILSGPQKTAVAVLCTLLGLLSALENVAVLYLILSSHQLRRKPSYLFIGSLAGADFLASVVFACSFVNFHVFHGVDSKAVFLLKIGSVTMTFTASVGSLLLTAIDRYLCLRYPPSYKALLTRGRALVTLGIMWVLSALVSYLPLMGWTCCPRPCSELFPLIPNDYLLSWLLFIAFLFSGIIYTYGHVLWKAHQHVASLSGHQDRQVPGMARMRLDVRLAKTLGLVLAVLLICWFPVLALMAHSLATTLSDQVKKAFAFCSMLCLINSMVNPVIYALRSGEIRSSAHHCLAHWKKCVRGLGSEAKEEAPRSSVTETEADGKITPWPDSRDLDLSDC
# Molecular target: wild-type CB2 receptor (Homo sapiens, UniProt P34972)
# Settings: Pertwee 2008; cited from earlier work
smiles,measurement,value
"C=C(C)[C@@H]1CCC(C)=C[C@H]1c1c(O)cc(CCCCC)cc1O [CBD, cannabidiol]",affinity for wild-type CB2 receptor,micromolar affinities
